The values that follow come from ChEMBL document CHEMBL1177773, “Design, synthesis and anticancer activity of piperazine hydroxamates and their histone deacetylase (HDAC) inhibitory activity” (Bioorg Med Chem Lett, 2010).

The experiment addresses T1, Histone deacetylase 8 (Homo sapiens, UniProt Q9BY41).
T1 sequence (Q9BY41 whole entry): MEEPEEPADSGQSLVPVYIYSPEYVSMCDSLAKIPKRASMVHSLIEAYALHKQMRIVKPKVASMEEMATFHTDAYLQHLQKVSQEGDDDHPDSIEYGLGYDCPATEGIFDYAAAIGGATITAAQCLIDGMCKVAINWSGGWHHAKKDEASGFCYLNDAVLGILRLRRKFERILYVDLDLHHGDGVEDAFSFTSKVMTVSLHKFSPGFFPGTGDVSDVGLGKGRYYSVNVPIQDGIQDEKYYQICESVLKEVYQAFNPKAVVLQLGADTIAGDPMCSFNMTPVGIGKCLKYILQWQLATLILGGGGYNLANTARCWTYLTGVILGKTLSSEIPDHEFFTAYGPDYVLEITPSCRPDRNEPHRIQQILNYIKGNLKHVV
Description: Inhibition of human HDAC8.

Molecules are shown by their SMILES.

A word on the IC50: it is the concentration that inhibits the measured activity by half. As for `O=C(CCCCCCC(=O)Nc1ccccc1)NO` [VORINOSTAT], 45 nM corresponded to half-maximal inhibition (IC50).
